{
  "sequences": {"note": "Sequences of proteins named here, by UniProt entry; tags and fusion partners are left off. A change or cut given only in a name is not applied to a line headed by its entry. Residues count along the entry.", "UniProt P08908, whole entry": "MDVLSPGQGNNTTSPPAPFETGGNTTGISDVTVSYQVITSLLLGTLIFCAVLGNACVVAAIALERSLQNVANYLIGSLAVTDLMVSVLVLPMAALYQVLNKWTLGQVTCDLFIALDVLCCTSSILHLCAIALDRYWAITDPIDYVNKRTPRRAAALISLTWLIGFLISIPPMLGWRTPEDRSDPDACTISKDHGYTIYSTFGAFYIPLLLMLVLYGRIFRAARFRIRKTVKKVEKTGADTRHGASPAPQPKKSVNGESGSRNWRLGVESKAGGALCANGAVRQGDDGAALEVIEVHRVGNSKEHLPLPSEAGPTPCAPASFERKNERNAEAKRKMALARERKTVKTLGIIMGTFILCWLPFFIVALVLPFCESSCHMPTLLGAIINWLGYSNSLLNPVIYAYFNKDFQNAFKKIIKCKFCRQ", "UniProt P21452, whole entry": "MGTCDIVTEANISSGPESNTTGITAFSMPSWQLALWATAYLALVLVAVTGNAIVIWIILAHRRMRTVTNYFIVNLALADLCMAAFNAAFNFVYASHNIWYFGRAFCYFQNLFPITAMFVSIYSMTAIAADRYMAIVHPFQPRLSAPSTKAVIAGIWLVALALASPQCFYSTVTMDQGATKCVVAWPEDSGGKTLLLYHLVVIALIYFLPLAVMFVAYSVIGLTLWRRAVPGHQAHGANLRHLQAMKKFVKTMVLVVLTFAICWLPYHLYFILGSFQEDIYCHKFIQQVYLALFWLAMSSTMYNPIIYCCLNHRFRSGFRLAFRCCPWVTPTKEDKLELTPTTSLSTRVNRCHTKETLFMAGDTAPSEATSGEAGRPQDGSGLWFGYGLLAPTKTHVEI", "UniProt P30989, whole entry": "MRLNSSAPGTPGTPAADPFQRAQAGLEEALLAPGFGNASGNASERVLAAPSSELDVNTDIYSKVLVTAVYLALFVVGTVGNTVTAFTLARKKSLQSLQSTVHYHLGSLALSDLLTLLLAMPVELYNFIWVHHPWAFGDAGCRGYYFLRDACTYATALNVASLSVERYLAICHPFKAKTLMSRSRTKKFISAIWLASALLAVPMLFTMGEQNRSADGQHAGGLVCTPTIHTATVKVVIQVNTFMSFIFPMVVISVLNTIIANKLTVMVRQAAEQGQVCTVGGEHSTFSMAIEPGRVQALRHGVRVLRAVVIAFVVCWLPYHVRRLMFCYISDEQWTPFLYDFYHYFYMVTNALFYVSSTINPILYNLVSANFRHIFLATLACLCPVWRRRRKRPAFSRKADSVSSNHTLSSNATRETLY", "UniProt P41146": "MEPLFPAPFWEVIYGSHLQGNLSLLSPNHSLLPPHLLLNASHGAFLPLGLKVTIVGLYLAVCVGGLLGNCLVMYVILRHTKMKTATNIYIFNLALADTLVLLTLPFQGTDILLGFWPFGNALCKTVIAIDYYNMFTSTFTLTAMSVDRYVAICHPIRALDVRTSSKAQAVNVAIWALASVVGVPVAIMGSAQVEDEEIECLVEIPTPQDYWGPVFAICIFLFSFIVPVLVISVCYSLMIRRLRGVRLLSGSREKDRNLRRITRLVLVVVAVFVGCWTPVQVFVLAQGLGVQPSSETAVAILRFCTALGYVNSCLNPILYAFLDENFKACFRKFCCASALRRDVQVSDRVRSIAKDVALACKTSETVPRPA", "UniProt P32241, 31-457": "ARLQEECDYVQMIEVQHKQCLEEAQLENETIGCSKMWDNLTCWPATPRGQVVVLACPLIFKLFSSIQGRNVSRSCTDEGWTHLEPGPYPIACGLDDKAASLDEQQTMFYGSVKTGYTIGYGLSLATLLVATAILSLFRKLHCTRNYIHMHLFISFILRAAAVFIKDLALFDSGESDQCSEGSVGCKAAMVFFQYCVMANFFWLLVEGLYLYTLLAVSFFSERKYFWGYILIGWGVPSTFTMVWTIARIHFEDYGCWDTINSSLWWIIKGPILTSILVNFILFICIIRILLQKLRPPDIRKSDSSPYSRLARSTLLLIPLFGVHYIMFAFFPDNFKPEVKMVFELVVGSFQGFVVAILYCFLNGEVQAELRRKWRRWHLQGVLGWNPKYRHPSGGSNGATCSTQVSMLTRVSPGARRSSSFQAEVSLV"},
  "source": "paper PMC8237303",
  "about": "(Heliyon, 2021)",
  "key": {"[1]": {"biological_target": "Serotonin 5HT1A receptor (Human) (Homo sapiens, UniProt P08908)", "experiment": "[3H]-8-Hydreoxy-DPAT binding assay", "conditions": "Human recombinant"}, "[2]": {"biological_target": "Neurokinin NK2 receptor (Human) (Homo sapiens, UniProt P21452)", "experiment": "[3H]-SR 48968 binding assay", "conditions": "Human recombinant"}, "[3]": {"biological_target": "Neurotensin NT1 receptor (Human) (Homo sapiens, UniProt P30989)", "experiment": "[125I]-Neurotensin binding assay", "conditions": "Human recombinant"}, "[4]": {"biological_target": "Opiate ORL1 receptor (Human) (Homo sapiens, UniProt P41146)", "experiment": "[3H]-Nociceptin binding assay", "conditions": "Human recombinant"}, "[5]": {"biological_target": "VIP 1 receptor (Human) (Homo sapiens, UniProt P32241)", "experiment": "[125I]-Vasoactive Intestinal Polypeptide binding assay", "conditions": "Human receptor (Non-recombinant)"}},
  "note": "Structures can show the parent of a compound that is named as a salt.",
  "data": [
    {"compound": "NCCc1c[nH]c2ccc(O)cc12", "note": "[Serotonin hydrochloride]", "values": [
      {"measurement": "Inhibition by a positive substance (%)", "setting": "[1]", "value": 99.67, "unit": "%"}
    ]},
    {"compound": "Neurokinin A", "values": [
      {"measurement": "Inhibition by a positive substance (%)", "setting": "[2]", "value": 99.61, "unit": "%"}
    ]},
    {"compound": "Neurotensin", "values": [
      {"measurement": "Inhibition by a positive substance (%)", "setting": "[3]", "value": 99.56, "unit": "%"}
    ]},
    {"compound": "Orphanin FQ", "values": [
      {"measurement": "Inhibition by a positive substance (%)", "setting": "[4]", "value": 100, "unit": "%"}
    ]},
    {"compound": "Vasoactive Intestinal Peptide human, porcine, rat", "values": [
      {"measurement": "Inhibition by a positive substance (%)", "setting": "[5]", "value": 100, "unit": "%"}
    ]}
  ]
}
